Measured values: ChEMBL document CHEMBL1667779, “Structure-based parallel medicinal chemistry approach to improve metabolic stability of benzopyran COX-2 inhibitors” (Bioorg Med Chem Lett, 2011)

Chains of the proteins cited; added tags and fusions are not shown.
UniProt P23219, whole entry: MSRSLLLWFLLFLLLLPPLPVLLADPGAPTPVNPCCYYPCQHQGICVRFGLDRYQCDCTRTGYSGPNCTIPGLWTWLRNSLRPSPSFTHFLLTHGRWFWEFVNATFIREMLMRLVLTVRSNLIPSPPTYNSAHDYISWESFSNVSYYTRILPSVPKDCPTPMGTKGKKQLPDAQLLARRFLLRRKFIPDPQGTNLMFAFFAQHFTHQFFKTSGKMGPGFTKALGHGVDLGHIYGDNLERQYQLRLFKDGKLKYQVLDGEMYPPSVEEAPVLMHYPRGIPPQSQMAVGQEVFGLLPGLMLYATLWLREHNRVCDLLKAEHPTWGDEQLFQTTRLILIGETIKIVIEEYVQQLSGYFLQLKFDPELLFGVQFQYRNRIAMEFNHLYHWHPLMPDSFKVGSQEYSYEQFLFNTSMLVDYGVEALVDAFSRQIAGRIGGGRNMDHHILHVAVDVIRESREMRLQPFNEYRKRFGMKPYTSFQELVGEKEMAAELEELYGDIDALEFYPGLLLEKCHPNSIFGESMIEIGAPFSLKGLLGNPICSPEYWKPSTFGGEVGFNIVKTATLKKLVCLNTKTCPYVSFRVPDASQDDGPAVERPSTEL

Target: Prostaglandin G/H synthase 1 (Homo sapiens, UniProt P23219)

IC50: 75.9 µM
Compound: CCSc1ccc(-c2cc(Cl)cc3c2OC(C(F)(F)F)C(C(=O)O)=C3)cc1 (stereo unspecified)
